PMC3177607 (Bioorganic & medicinal chemistry letters, 2008)

Sequences of proteins named here, by UniProt entry; tags and fusion partners are left off. A change or cut given only in a name is not applied to a line headed by its entry.
UniProt P20309, whole entry: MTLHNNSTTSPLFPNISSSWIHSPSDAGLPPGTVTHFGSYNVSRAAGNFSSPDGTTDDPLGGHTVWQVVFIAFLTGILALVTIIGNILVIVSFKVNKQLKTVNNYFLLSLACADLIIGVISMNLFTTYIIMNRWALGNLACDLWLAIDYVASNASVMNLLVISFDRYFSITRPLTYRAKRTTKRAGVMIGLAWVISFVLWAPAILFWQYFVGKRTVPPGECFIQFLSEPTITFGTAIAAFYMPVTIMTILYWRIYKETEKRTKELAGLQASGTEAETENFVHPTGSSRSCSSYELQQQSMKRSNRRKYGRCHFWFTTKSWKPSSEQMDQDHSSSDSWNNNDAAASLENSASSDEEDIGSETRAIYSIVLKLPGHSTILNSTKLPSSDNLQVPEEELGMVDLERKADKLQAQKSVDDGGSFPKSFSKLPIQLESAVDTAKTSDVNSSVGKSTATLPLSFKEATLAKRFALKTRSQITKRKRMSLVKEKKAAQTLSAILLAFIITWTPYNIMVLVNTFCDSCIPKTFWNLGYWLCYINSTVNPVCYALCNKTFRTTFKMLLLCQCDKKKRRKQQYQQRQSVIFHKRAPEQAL
UniProt P08482: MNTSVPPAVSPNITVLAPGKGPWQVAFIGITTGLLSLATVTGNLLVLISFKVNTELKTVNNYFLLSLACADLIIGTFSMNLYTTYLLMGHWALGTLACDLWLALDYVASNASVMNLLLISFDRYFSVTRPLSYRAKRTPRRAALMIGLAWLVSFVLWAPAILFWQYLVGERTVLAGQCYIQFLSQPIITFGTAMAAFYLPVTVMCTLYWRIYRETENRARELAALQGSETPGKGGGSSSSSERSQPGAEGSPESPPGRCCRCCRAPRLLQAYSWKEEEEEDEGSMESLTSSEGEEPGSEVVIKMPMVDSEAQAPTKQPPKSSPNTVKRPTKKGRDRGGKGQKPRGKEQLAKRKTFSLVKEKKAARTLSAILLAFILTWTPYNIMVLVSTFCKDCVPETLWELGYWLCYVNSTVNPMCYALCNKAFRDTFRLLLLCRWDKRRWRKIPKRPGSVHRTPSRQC

Tests used:
[1] = biological target: M3 (Homo sapiens, UniProt P20309); assay: M3 functional activation; format: cell-based; settings: read-out: M3 EC50
[2] = biological target: M1 (Rattus norvegicus, UniProt P08482); assay: M1 functional activation, concentration-response; format: cell-based; settings: activation of M1 relative to 100% response of CCh

CCOC(=O)N1CCC(N2CCC(n3c(=O)[nH]c4ccccc43)CC2)CC1 [ethyl carbamate congener]
EC50 [1]: 0.113 µM
%CCh Max [2]: 82.6%
